Results published in paper PMC3867539 (Angewandte Chemie (International ed. in English), 2013).

Test system: ON=CCc1c[nH]c2ccccc12
Assay: cells, lysate or membranes
Settings: NADPH, ATR1 reductase

In the case of CYP71A13 (Arabidopsis thaliana), the Km is reported as 21.4 ± 2.7 µM.
